Assay [1] concerns Mus musculus. Briefly: In vivo percent increase in seizure threshold in mouse MEST model 1 hour following 10 mg/kg p.o. As to conditions: at 10 mg/kg.
Assay [2] has as its system Mus musculus. Briefly: In vivo percent increase in seizure threshold in mouse MEST model 4 hours following 10 mg/kg p.o. The settings on record: at 10 mg/kg.

Turning to `CC(=O)c1ccc2c(c1)[C@H](NC(=O)c1cccc(Cl)c1Cl)[C@H](O)C(C)(C)O2`, the values for the Increase in the assay on Mus musculus [1] and with Mus musculus [2] were 116% and 768%, respectively.

Turning to `CC(=O)c1ccc2c(c1)[C@H](NC(=O)c1cccc(Cl)c1Cl)[C@@H](O)C(C)(C)O2`, the values for the Increase in the assay with Mus musculus [1] and in the assay with Mus musculus [2] were 146% and 1070%, respectively.

For the compound `CC(=O)c1ccc2c(c1)[C@H](NC(=O)c1ccccc1Cl)[C@H](O)C(C)(C)O2`, the Increase with Mus musculus [1] is 8.4%; in the assay on Mus musculus [2] it was 424%.

As for `CC(=O)c1ccc2c(c1)[C@H](NC(=O)c1ccccc1Cl)[C@@H](O)C(C)(C)O2`, the Increase in the assay on Mus musculus [2] worked out at 478%.

(Values after ChEMBL document CHEMBL1132398, “Identification of (-)-cis-6-acetyl-4S-(3-chloro-4-fluoro-benzoylamino)- 3,4-dihydro-2,2-dimethyl-2H-benzo[b]pyran-3S-ol as a potential antimigraine agent” (Bioorg Med Chem Lett, 1999).)
